In BindingDB's records for 12904075:
Only a part of the results on these compounds is given; other tests are left out.

By UniProt entry, the sequences of proteins in these tests, tags left out. Residues count along the entry.
UniProt P10696, 20-503 limits assumed: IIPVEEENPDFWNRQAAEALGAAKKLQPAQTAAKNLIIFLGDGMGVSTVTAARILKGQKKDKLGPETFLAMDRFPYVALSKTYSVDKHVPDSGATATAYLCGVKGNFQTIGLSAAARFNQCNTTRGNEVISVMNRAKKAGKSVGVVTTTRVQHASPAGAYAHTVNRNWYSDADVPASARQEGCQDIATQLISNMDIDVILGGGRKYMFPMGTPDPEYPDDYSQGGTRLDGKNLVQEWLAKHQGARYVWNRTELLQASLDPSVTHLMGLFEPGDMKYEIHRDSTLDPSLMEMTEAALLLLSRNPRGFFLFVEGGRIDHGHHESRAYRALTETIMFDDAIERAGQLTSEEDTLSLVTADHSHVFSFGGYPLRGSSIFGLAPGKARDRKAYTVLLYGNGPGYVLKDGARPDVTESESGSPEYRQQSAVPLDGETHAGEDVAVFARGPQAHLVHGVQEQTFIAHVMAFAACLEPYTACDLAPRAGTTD
UniProt P03772, whole entry: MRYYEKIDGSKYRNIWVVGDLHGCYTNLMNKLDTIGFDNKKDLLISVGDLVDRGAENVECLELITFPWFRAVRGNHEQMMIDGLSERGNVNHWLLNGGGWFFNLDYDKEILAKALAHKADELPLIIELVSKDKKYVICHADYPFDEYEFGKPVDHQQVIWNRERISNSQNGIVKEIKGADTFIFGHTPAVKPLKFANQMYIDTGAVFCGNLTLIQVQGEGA

Experiments:
[1] = target: Alkaline phosphatase, germ cell type (Homo sapiens, UniProt P10696); test: ASSAY_NAME: ChEMBL_157081 (CHEMBL765525) DESCRIPTION: Inhibition of Human Placental alkaline Phosphatase (PLAP)
[2] = target: Serine/threonine-protein phosphatase (Lambdavirus lambda, UniProt P03772); test: ASSAY_NAME: ChEMBL_96757 (CHEMBL705380) DESCRIPTION: Inhibitory activity against Serine/Threonine Protein Phosphatase (Lambda protein phosphatase)

| Structure (SMILES) | Ki [1] [µM] | Ki [2] [µM] |
| --- | --- | --- |
| OP(O)(=S)Cc1ccccc1 | 200 | 570 |
| OP(O)(=S)CSc1ccccc1 | 460 | 470 |
| CSCP(O)(O)=S | 40 | 1200 |
| CCCCP(O)(O)=S | 600 | 20000 |
